SMILES strings stand for the structures. Like-named read-outs stand apart in the source and are kept apart here.

By UniProt entry, the sequences of proteins in these tests, tags left out. Residues count along the entry.
UniProt Q07820, 171-327 limits assumed: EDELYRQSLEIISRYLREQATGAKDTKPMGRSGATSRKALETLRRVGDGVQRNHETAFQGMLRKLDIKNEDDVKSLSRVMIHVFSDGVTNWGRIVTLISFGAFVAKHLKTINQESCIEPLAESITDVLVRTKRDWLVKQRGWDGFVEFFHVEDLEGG

The target in experiment [1] is Mcl-1/Bim interaction, recombinant human Mcl-1 (171-327) (Homo sapiens, UniProt Q07820). Briefly: Cell free Mcl-1: Bim Affinity Assay (Mcl-1 HTRF). In kind it is binding. The following applies: read-out: Mcl-1 HTRF.
The subject of experiment [2] is OPM-2 human multiple myeloma cell line. Briefly: Cell Viability Assay (OPM-2 10 FBS). In kind it is cell-based.
Where [3] appears, read: TR-FRET, 0.1 nM Mcl-1 (171-327), 0.05 nM biotin-Bim (51-76).
The mark [4] stands for this setting: read-out: OPM-2 10% FBS, OPM-2 cells, 16 h, CellTiter-Glo.
Setting [5] is: cell free Mcl-1:Bim TR-FRET, recombinant human Mcl-1 (171-327).
Where [6] appears, read: read-out: OPM-2 10% FBS, OPM-2 cells, 16 h incubation, CellTiter-Glo.

Regarding `CC1CC(O)[C@@H]2CC[C@H]2CN2C[C@@]3(CCCc4cc(Cl)ccc43)COc3ccc(cc32)C(=O)NS(=O)(=O)C[C@@H](C)C1` (single isomer, unassigned) [Example 269], the results for the IC50 in experiment [1] (setting [3]) and in experiment [2] (setting [4]) were 25.7 nM and 5560 nM, respectively.
Regarding `CC1CC(O)[C@@H]2CC[C@H]2CN2C[C@@]3(CCCc4cc(Cl)ccc43)COc3ccc(cc32)C(=O)NS(=O)(=O)C[C@@H](C)C1` (single isomer, unassigned) [Example 271], the IC50 is 4.89 nM in experiment [1] (setting [3]) and 20900 nM in experiment [2] (setting [4]).
As for `CC(C)CC1CC(C)/C=C/[C@H](O)[C@@H]2CC[C@H]2CN2C[C@@]3(CCCc4cc(Cl)ccc43)COc3ccc(cc32)C(=O)NS1(=O)=O` (single isomer, unassigned) [Example 481], the IC50 in experiment [1] (setting [5]) was found to be 0.541 nM; in experiment [2] (setting [4]), 1870 nM.
The like results for `CC(C)CC1CC(C)/C=C/[C@H](O)[C@@H]2CC[C@H]2CN2C[C@@]3(CCCc4cc(Cl)ccc43)COc3ccc(cc32)C(=O)NS1(=O)=O` (single isomer, unassigned) [Example 483] were, in that order, 20.2 nM and 12000 nM.
The like results for `CC1C/C=C/[C@H](O)[C@@H]2CC[C@H]2CN2C[C@@]3(CCCc4cc(Cl)ccc43)COc3ccc(cc32)C(=O)NS(=O)(=O)C1Cc1cccs1` (single isomer, unassigned) [Example 634] were, in that order, 11.5 nM and 2140 nM.
In the case of `CC1C/C=C/[C@H](O)[C@@H]2CC[C@H]2CN2C[C@@]3(CCCc4cc(Cl)ccc43)COc3ccc(cc32)C(=O)NS(=O)(=O)C1Cc1cccs1` (single isomer, unassigned) [Example 635], the values for the IC50 in experiment [1] (setting [5]) and in experiment [2] (setting [4]) were 0.984 nM and 98.5 nM, respectively.
For the compound `COC1C/C=C/[C@H](O)[C@@H]2CC[C@H]2CN2C[C@@]3(CCCc4cc(Cl)ccc43)COc3ccc(cc32)C(=O)NS(=O)(=O)C1CC1CCC1` (single isomer, unassigned) [Example 639], the IC50 came out at 0.809 nM in experiment [1] (setting [5]) and 348 nM in experiment [2] (setting [4]).
The like results for `COC1C/C=C/[C@H](O)[C@@H]2CC[C@H]2CN2C[C@@]3(CCCc4cc(Cl)ccc43)COc3ccc(cc32)C(=O)NS(=O)(=O)C1CC1CCC1` (single isomer, unassigned) [Example 640] were, in that order, 20.9 nM and 5400 nM.
The like results for `C[C@H]1CC=C[C@H](O)[C@@H]2CC[C@H]2CN2C[C@@]3(CCCc4cc(Cl)ccc43)COc3ccc(cc32)C(=O)NS(=O)(=O)C1CC(F)(F)F` (single isomer, unassigned) [Example 661] were, in that order, 2.51 nM and 2760 nM.
The like results for `C[C@H]1CC=C[C@H](O)[C@@H]2CC[C@H]2CN2C[C@@]3(CCCc4cc(Cl)ccc43)COc3ccc(cc32)C(=O)NS(=O)(=O)C1CC(F)(F)F` (single isomer, unassigned) [Example 662] were, in that order, 1.12 nM and 1390 nM.
Take `CC1C(C2CC2)C/C=C/[C@H](O)[C@@H]2CC[C@H]2CN2C[C@@]3(CCCc4cc(Cl)ccc43)COc3ccc(cc32)C(=O)NS1(=O)=O` (single isomer, unassigned) [Example 676]: the IC50 in experiment [1] (setting [5]) was found to be 2.03 nM; in experiment [2] (setting [4]) it was 3910 nM.
The like results for `CC1C(C2CC2)C/C=C/[C@H](O)[C@@H]2CC[C@H]2CN2C[C@@]3(CCCc4cc(Cl)ccc43)COc3ccc(cc32)C(=O)NS1(=O)=O` (single isomer, unassigned) [Example 678] were, in that order, 8.02 nM and 7290 nM.
The like results for `COC1C/C=C/[C@H](OC)[C@@H]2CC[C@H]2CN2C[C@@]3(CCCc4cc(Cl)ccc43)COc3ccc(cc32)C(=O)NS(=O)(=O)C1C` (single isomer, unassigned) [Example 714] were, in that order, 1.81 nM and 1360 nM.
The like results for `COC1C/C=C/[C@H](OC)[C@@H]2CC[C@H]2CN2C[C@@]3(CCCc4cc(Cl)ccc43)COc3ccc(cc32)C(=O)NS(=O)(=O)C1C` (single isomer, unassigned) [Example 715] were, in that order, 7.26 nM and 13700 nM.
As for `COC1C/C=C/[C@H](OC)[C@@H]2CC[C@H]2CN2C[C@@]3(CCCc4cc(Cl)ccc43)COc3ccc(cc32)C(=O)NS(=O)(=O)C1C` (single isomer, unassigned) [Example 716], the IC50 stood at 17.3 nM in experiment [1] (setting [5]) and 23500 nM in experiment [2] (setting [4]).
On to `O=C1NS(=O)(=O)C2CC2C/C=C/[C@H](O)[C@@H]2CC[C@H]2CN2C[C@@]3(CCCc4cc(Cl)ccc43)COc3ccc1cc32` (single isomer, unassigned) [Example 794], for which the figures for the IC50 in experiment [1] (setting [5]) and in experiment [2] (setting [4]) were 1.51 nM and 1900 nM, respectively.
The like results for `O=C1NS(=O)(=O)C2CC2C/C=C/[C@H](O)[C@@H]2CC[C@H]2CN2C[C@@]3(CCCc4cc(Cl)ccc43)COc3ccc1cc32` (single isomer, unassigned) [Example 795] were, in that order, 0.38 nM and 392 nM.
The like results for `O=C1NS(=O)(=O)CC2CC2/C=C/[C@H](O)[C@@H]2CC[C@H]2CN2C[C@@]3(CCCc4cc(Cl)ccc43)COc3ccc1cc32` (single isomer, unassigned) [Example 802] were, in that order, 4.51 nM and 3310 nM.
For `O=C1NS(=O)(=O)CCOC2CCOC(C2)[C@@H]2CC[C@H]2CN2C[C@@]3(CCCc4cc(Cl)ccc43)COc3ccc1cc32` (single isomer, unassigned) [Example 836], the IC50 in experiment [1] (setting [5]) came to 0.628 nM; in experiment [2] (setting [4]), 706 nM.
The like results for `O=C1NS(=O)(=O)CCOC2CCOC(C2)[C@@H]2CC[C@H]2CN2C[C@@]3(CCCc4cc(Cl)ccc43)COc3ccc1cc32` (single isomer, unassigned) [Example 837] were, in that order, 1.2 nM and 4080 nM.
On to `CC1/C=C/C(O)[C@@H]2CC[C@H]2CN2C[C@@]3(CCCc4cc(Cl)ccc43)COc3ccc(cc32)C(=O)NS(=O)(=O)CC1C` (single isomer, unassigned) [Example 1060], for which the figures for the IC50 in experiment [1] (setting [3]) and in experiment [2] (setting [6]) were 0.178 nM and 116 nM, respectively.
The like results for `CC1/C=C/C(O)[C@@H]2CC[C@H]2CN2C[C@@]3(CCCc4cc(Cl)ccc43)COc3ccc(cc32)C(=O)NS(=O)(=O)CC1C` (single isomer, unassigned) [Example 1063] were, in that order, 11.3 nM and 18400 nM.

Values taken from patent US12091425B2 (AMGEN INC., priority 2016, dated 2024).
